Each structure is given as a SMILES string.

In this data set the test system is female Cynomolgus monkeys (Macaca fascicularis). Put plainly: 39-week intragastric study in female Cynomolgus monkeys: impact on ovarian cycle and function, microscopic status at necropsy. As to conditions: 0.2 mg/kg daily, treatment period.

Regarding `C[C@]12CC[C@@H]3c4ccc(OS(N)(=O)=O)cc4CC[C@H]3[C@@H]1CC[C@@H]2O` [E2MATE, Estradiol sulfamate], the “compound-related prolongation of the menstrual cycle length (animals)” value was 6/8.

The record behind these values is patent publication US20100204146A1, “Treatment of Oestrogen Dependant Conditions in Pre-menopausal Women” (PregLem S.A., priority 2007, published 2010).
